According to patent US7479478B2, “Human parathyroid hormone modifications, preparation and use” (The General Hospital Corporation, priority 1998, dated 2009):

Columns and labels:
human PTH-1 receptors [1] = target: T1, human PTH-1 receptors (Homo sapiens, UniProt Q03431); test: Radioligand competition binding with 125I-[Nle8,21,Tyr34]rat PTH-(1-34) in HKRK B7 cells; conditions: maximal concentrations of hPTH-(1-34), without competitor 25520±1909
T1 construct: expressed in transfected cells
T1 sequence (Q03431 27-593): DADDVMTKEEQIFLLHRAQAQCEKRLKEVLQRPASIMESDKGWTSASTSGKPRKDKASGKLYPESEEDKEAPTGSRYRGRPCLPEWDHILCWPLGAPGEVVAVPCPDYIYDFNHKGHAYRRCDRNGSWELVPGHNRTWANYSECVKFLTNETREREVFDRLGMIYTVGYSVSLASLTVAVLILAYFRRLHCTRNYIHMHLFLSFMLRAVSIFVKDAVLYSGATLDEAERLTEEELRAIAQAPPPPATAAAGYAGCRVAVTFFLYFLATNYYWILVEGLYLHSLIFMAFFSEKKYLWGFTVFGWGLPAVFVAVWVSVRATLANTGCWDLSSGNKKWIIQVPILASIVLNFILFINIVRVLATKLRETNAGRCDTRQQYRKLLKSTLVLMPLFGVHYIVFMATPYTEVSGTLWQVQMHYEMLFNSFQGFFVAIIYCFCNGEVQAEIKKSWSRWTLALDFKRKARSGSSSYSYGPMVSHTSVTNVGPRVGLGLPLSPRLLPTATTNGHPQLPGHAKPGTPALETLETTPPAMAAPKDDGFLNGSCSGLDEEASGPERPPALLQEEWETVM
Procedure: HKRK B7 or EW5 cells (32), subclones of LLC-PKI renal epithelial cells that stably express human or rat PTH-1 receptors (950,000 and 320,000 receptors/cell, respectively), were maintained under 5% CO2 in air in Dulbecco's modified essential medium containing 7% fetal bovine serum (FBS) and 1% penicillin/streptomycin (GIBCO-BRL, Grand Island, N.Y.). HEK-293 and COS-7 cells were cultured similarly, except that 10% FBS was used in the medium. Cells were seeded into 24-well plates two days before assay at a density of 2-2.5×10^5 cells/well (HKRK B7 or EW 5 cells) or 6×10^5 cells/well (in 6-well plates) (HEK-293 cells). In experiments involving HEK-293 cells, DNA transfections were performed 24 hr after plating and inositol radiolabel was added 24 hr thereafter (see below). COS-7 cell transfections were performed as previously described (Gardella, T. J., et al., Endocrinology 132(5):2024-2030 (1993)) Radioligand competition binding assays were performed at 2-8° C. for 6 hr using ^125I-[Nle^8,21,[…]]rat PTH-(1-34) (100,000 cpm/well) in the presence or absence of non-radioactive hPTH-(1-34) analogs. Cell layers were washed three times before solubilization for determination of cell-associated radioactivity.

human PTH-1 receptors [2] = target: T1, human PTH-1 receptors; test: Intracellular cAMP accumulation (adenylyl cyclase, AC, activation) in HKRK B7 cells; assay type: cell-based; conditions: maximal concentrations of hPTH-(1-34), basal 12 ±4
Procedure: HKRK B7 or EW5 cells (32), subclones of LLC-PKI renal epithelial cells that stably express human or rat PTH-1 receptors (950,000 and 320,000 receptors/cell, respectively), were maintained under 5% CO2 in air in Dulbecco's modified essential medium containing 7% fetal bovine serum (FBS) and 1% penicillin/streptomycin (GIBCO-BRL, Grand Island, N.Y.). HEK-293 and COS-7 cells were cultured similarly, except that 10% FBS was used in the medium. Cells were seeded into 24-well plates two days before assay at a density of 2-2.5×10^5 cells/well (HKRK B7 or EW 5 cells) or 6×10^5 cells/well (in 6-well plates) (HEK-293 cells). […] COS-7 cell transfections were performed as previously described (Gardella, T. J., et al., Endocrinology 132(5):2024-2030 (1993)) Intracellular cAMP accumulation, PLC activation and PTHR binding affinity were measured as previously reported (Bringhurst, F. R., et al., Endocrinology 132(5):2090-2098 (1993); Guo, J., et al., Endocrinology 136(9):3884-3891 (1995)). Intracellular cAMP accumulation was measured in extracts of cells that were exposed to human PTH peptides in the presence of isobutylmethyxanthine (IBMX, 1 mM) at 37° C. for 15 min. After terminating the reactions by aspiration and freezing in liquid nitrogen, cell monolayers were extracted with 50 mM HCl and cAMP was measured using a radioimmunoassay kit (Dupont-New England Nuclear, Boston, Mass.).

human PTH-1 receptors [3] = target: T1, human PTH-1 receptors; test: PLC activation (IP3 formation) in HKRK B7 cells; assay type: cell-based; conditions: maximal concentrations of hPTH-(1-34), basal 898±142
Procedure: HKRK B7 or EW5 cells (32), subclones of LLC-PKI renal epithelial cells that stably express human or rat PTH-1 receptors (950,000 and 320,000 receptors/cell, respectively), were maintained under 5% CO2 in air in Dulbecco's modified essential medium containing 7% fetal bovine serum (FBS) and 1% penicillin/streptomycin (GIBCO-BRL, Grand Island, N.Y.). HEK-293 and COS-7 cells were cultured similarly, except that 10% FBS was used in the medium. Cells were seeded into 24-well plates two days before assay at a density of 2-2.5×10^5 cells/well (HKRK B7 or EW 5 cells) or 6×10^5 cells/well (in 6-well plates) (HEK-293 cells). In experiments involving HEK-293 cells, DNA transfections were performed 24 hr after plating and inositol radiolabel was added 24 hr thereafter (see below). COS-7 cell transfections were performed as previously described (Gardella, T. J., et al., Endocrinology 132(5):2024-2030 (1993))
PLC was activated by PTH agonists in the presence of 30 mM LiCl at 37° C. for 30 min after 16 hr of labeling with [^3H]myo-inositol (3 uCi/ml) in serum-free medium containing 0.1% bovine serum albumin. The reactions were stopped by rapid aspiration and addition of cold 5% TCA. Water-soluble radiolabeled inositol trisphosphate (IP3) was isolated after ether extraction by ion-exchange chromatography (Guo, J., et al., Endocrinology 136(9):3884-3891 (1995)). […]

Compound: CC[C@H](C)[C@H](NC(=O)[C@H](CCC(=O)O)NC(=O)[C@H](CO)NC(=O)[C@@H](NC(=O)[C@@H](N)CO)C(C)C)C(=O)N[C@@H](CCC(N)=O)C(=O)N[C@@H](CC(C)C)C(=O)N[C@@H](CCSC)C(=O)N[C@@H](Cc1c[nH]cn1)C(=O)N[C@@H](CC(N)=O)C(=O)N[C@@H](CC(C)C)C(=O)NCC(=O)N[C@@H](CCCCN)C(=O)N[C@@H](Cc1c[nH]cn1)C(=O)N[C@@H](CC(C)C)C(=O)N[C@@H](CC(N)=O)C(=O)N[C@@H](CO)C(=O)N[C@@H](CCSC)C(=O)N[C@@H](CCC(=O)O)C(=O)N[C@@H](CCCNC(=N)N)C(=O)N[C@H](C(=O)N[C@@H](CCC(=O)O)C(=O)N[C@@H](Cc1c[nH]c2ccccc12)C(=O)N[C@@H](CC(C)C)C(=O)N[C@@H](CCCNC(=N)N)C(=O)N[C@@H](CCCCN)C(=O)N[C@@H](CCCCN)C(=O)N[C@@H](CC(C)C)C(=O)N[C@@H](CCC(N)=O)C(=O)N[C@@H](CC(=O)O)C(=O)N[C@H](C(=O)N[C@@H](Cc1c[nH]cn1)C(=O)N[C@@H](CC(N)=O)C(=O)N[C@@H](Cc1ccc(O)cc1)C(N)=O)C(C)C)C(C)C [hPTH-(1-34), reference compound]
- radioligand binding, average level (human PTH-1 receptors [1]): 956±135 cpm/well
- cAMP accumulation, average level (human PTH-1 receptors [2]): 207±37 pmoles/well/15 min
- IP3 formation, average level (human PTH-1 receptors [3]): 1908 ±251 cpm/well
